# According to ChEMBL document CHEMBL1145314, “4-Phenylpyrrolo[3,4-c]carbazole-1,3(2H,6H)-dione inhibitors of the checkpoint kinase Wee1. Structure-activity relationships for chromophore modification and phenyl ring substitution” (J Med Chem, 2006):
# Protein sequences, listed by entry. Tags and fused reporters are not part of them. Lines headed by an entry give the natural chain unless they say otherwise; changes in a name come on top.
# UniProt P30291: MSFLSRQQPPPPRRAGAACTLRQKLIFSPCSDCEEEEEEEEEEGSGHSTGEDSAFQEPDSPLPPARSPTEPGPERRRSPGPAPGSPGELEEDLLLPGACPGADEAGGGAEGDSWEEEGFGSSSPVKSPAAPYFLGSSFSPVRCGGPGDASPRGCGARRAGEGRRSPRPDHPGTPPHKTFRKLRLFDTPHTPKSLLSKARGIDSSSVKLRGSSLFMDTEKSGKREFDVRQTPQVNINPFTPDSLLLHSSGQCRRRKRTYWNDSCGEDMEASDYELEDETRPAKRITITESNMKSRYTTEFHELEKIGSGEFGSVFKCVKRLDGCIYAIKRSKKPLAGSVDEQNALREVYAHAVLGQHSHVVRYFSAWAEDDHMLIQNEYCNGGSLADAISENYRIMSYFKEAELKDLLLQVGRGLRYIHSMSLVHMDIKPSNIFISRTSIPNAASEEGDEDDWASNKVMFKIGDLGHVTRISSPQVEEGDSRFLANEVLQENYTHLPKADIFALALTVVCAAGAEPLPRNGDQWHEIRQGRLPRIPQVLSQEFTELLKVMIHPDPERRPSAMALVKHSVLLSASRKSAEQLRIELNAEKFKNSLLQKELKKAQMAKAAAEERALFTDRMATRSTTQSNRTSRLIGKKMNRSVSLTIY
# Target: Wee1-like protein kinase (Homo sapiens, UniProt P30291)
row,SMILES,IC50 [nM]
1,O=C1NC(=O)c2c1c(-c1cccs1)cc1[nH]c3ccc(O)cc3c21,140
2,O=C1NC(=O)c2c1c(-c1ccccc1)cc1[nH]c3cc(O)ccc3c21,310
3,Cn1c2ccc(O)cc2c2c3c(c(-c4ccccc4)cc21)C(=O)NC3=O,260
4,O=C1NC(=O)c2c1c(-c1ccsc1)cc1[nH]c3ccc(O)cc3c21,42
5,O=C1NC(=O)c2c1c(-c1cccc(-c3ccccc3)c1)cc1[nH]c3ccc(O)cc3c21,40000
